Consider 37 compounds from ChEMBL document CHEMBL4428027, “3-Hydroxypyrimidine-2,4-diones as Selective Active Site Inhibitors of HIV Reverse Transcriptase-Associated RNase H: Design, Synthesis, and Biochemical Evaluations” (J Med Chem, 2016).

The target of experiment [1] is Human immunodeficiency virus type 1 reverse transcriptase (Human immunodeficiency virus 1) (UniProt Q72547). Briefly: Inhibition of HIV1 polymerase activity of reverse transcriptase using poly(rA)-oligo(dT)16 and [3H]-TTP up to 25 uM incubated for 20 mins by liquid scintillation spectrometry. The essentials:
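Reaction mix: 10 µM [3H]-TTP, 40 nM poly(rA)-oligo(dT)16, 50 mM Tris-HCl pH 7.4 (37°C), 60 mM KCl, 5 mM MgCl2. Started with 10 nM RT; 20 min at 37°C. Quenched in ice-cold 10% TCA with 20 mM sodium pyrophosphate, then glass-fibre filtered and washed with TCA and ethanol. Label incorporation read by liquid scintillation.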

Experiment [2] has the same target. Briefly: Inhibition of RNase H activity of full length recombinant HIV1 reverse transcriptase assessed as reduction in RNA 5'-end directed cleavage up to 25 uM using HTS3 substrate.
Experiment [3] has the same target. Briefly: Inhibition of re-constituted HIV1 reverse transcriptase RNase H domain fragment up to 25 uM. In a few lines:
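Secondary check using a catalytically active, isolated HIV RNase H domain fragment (reconstituted) with duplex substrate HTS-1. […] Upper test concentration 25 µM.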

Activity calls are given as the source filed them. No cut-off for these calls is given here.

On to `Cn1c(Oc2ccc(-c3ccc(C#N)cc3)cc2)cc(=O)n(O)c1=O`, for which the inhibition result in experiment [1] is “inactive”.
In the case of `COc1cccc(-c2cccc(Nc3cc(=O)n(O)c(=O)n3C)c2)c1`, in experiment [1], the inhibition result was “inactive”.
As to `Cn1c(Oc2ccc(-c3cccc(C#N)c3)cc2)cc(=O)n(O)c1=O`, the inhibition entry in experiment [1] is “inactive”.
Regarding `Cn1c(Oc2ccc(-c3ccccc3)cc2)cc(=O)n(O)c1=O`, the inhibition result in experiment [1] is “inactive”.
In the case of `Cn1c(Oc2ccc(-c3ccc(Cl)cc3)cc2)cc(=O)n(O)c1=O`, the inhibition result in experiment [1] was “inactive”.
The same measure, in the same setting: under `COc1ccc(-c2ccccc2Oc2cc(=O)n(O)c(=O)n2C)cc1` stands “inactive”; under `Cn1c(Nc2cccc(-c3ccccc3)c2)cc(=O)n(O)c1=O`, “inactive”.
For `Cn1c(Nc2ccc(-c3ccc(C(F)(F)F)cc3)cc2)cc(=O)n(O)c1=O`, the inhibition entry in experiment [1] is “inactive”.
As for `Cn1c(Oc2ccc(-c3ccc(O)cc3)cc2)cc(=O)n(O)c1=O`, the inhibition result in experiment [1] was “inactive”.
On to `COc1ccc(-c2cccc(Oc3cc(=O)n(O)c(=O)n3C)c2)cc1`, for which the inhibition result in experiment [1] is “inactive”.
Turning to `Cn1c(Oc2ccccc2-c2ccccc2O)cc(=O)n(O)c1=O`, the inhibition entry in experiment [1] and in experiment [2] was “inactive” throughout.
For the compound `COc1ccccc1-c1ccc(Nc2cc(=O)n(O)c(=O)n2C)cc1`, the inhibition entry in experiment [1] was “inactive”.
As to `Cc1noc(C)c1-c1ccc(Nc2cc(=O)n(O)c(=O)n2C)cc1`, the inhibition result in experiment [1] was “inactive”.
Consider `COc1ccc(-c2ccc(Oc3cc(=O)n(O)c(=O)n3C)cc2)cc1`, for which the inhibition result in experiment [1] is “inactive”.
As to `Cc1noc(C)c1-c1ccccc1Nc1cc(=O)n(O)c(=O)n1C`, the inhibition entry in experiment [1] and in experiment [2] was “inactive” throughout.
As for `COc1ccccc1-c1ccc(Oc2cc(=O)n(O)c(=O)n2C)cc1`, in experiment [1], the inhibition entry is “inactive”.
On to `COc1cccc(-c2cccc(Oc3cc(=O)n(O)c(=O)n3C)c2)c1`, for which the inhibition result in experiment [1] is “inactive”.
On to `Cn1c(Oc2cccc(-c3ccc(C#N)cc3)c2)cc(=O)n(O)c1=O`, for which the inhibition entry in experiment [1] is “inactive”.
As to `COc1ccc(-c2ccc(Nc3cc(=O)n(O)c(=O)n3C)cc2)cc1`, the inhibition entry in experiment [1] was “inactive”.
In the case of `Cn1c(Oc2ccc(-c3ccncc3)cc2)cc(=O)n(O)c1=O`, in experiment [1], the inhibition result is “inactive”.
For the compound `Cn1c(Oc2cccc(-c3cccc(O)c3)c2)cc(=O)n(O)c1=O`, the inhibition entry in experiment [1] was “inactive”.
Consider `Cn1c(Oc2cccc(-c3ccccc3)c2)cc(=O)n(O)c1=O`, for which the inhibition entry in experiment [1] was “inactive”.
Turning to `Cn1c(Oc2ccccc2-c2ccc(C(F)(F)F)cc2)cc(=O)n(O)c1=O`, the inhibition entry in experiment [1] is “inactive”.
Take `COc1ccccc1-c1ccccc1Oc1cc(=O)n(O)c(=O)n1C`: the inhibition result in experiment [1] and in experiment [2] was “inactive” throughout.
Turning to `Cn1c(Oc2cccc(-c3cccc(C#N)c3)c2)cc(=O)n(O)c1=O`, in experiment [1], the inhibition result is “inactive”.
Same read-out and setting: under `COc1ccccc1-c1cccc(Oc2cc(=O)n(O)c(=O)n2C)c1` stands “inactive”; under `COc1ccc(-c2ccc(Nc3cc(=O)n(O)c(=O)n3C)cc2)c(OC)c1`, “inactive”.
`Cn1c(Nc2cccc(-c3cncnc3)c2)cc(=O)n(O)c1=O`: in experiment [1], the inhibition entry is “inactive”.
With `Cn1c(Nc2ccc(-c3ccccc3)cc2)cc(=O)n(O)c1=O`, the inhibition result in experiment [1] was “inactive”.
Consider `Cc1ccc(-c2ccc(Nc3cc(=O)n(O)c(=O)n3C)cc2)cc1`, for which the inhibition result in experiment [1] was “inactive”.
Consider `COc1cc(OC)cc(-c2cccc(Nc3cc(=O)n(O)c(=O)n3C)c2)c1`, for which, in experiment [1], the inhibition entry was “inactive”.
Turning to `Cn1c(Oc2cccc(-c3ccc(C(F)(F)F)cc3)c2)cc(=O)n(O)c1=O`, the inhibition result in experiment [1], in experiment [2] and in experiment [3] was “inactive” each time.
Consider `Cn1c(Nc2ccc(-c3cccc(C#N)c3)cc2)cc(=O)n(O)c1=O`, for which the inhibition entry in experiment [1] is “inactive”.
Turning to `COc1cccc(-c2ccc(Nc3cc(=O)n(O)c(=O)n3C)cc2)c1`, the inhibition result in experiment [1] was “inactive”.
Regarding `Cn1c(Oc2ccc(-c3ccc(C(F)(F)F)cc3)cc2)cc(=O)n(O)c1=O`, the inhibition result in experiment [1] and in experiment [2] was “inactive” throughout.
In the case of `COc1cccc(OC)c1-c1cccc(Nc2cc(=O)n(O)c(=O)n2C)c1`, the inhibition result in experiment [1] was “inactive”.
As to `COc1cccc(-c2ccccc2Oc2cc(=O)n(O)c(=O)n2C)c1`, the inhibition result in experiment [1] and in experiment [2] was “inactive” each time.
